Results: PubChem BioAssay AID588850 (Sanford-Burnham Center for Chemical Genomics, 2011)
The entries are a selection whose mix differs from that of the whole data set. The source made the active and inactive calls.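 Rule for the calls: active = at least 50% inhibition at 5 µM, scaled per plate between neutral and stimulator controls; inactive = the rest.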

experiment: inhibitors of PAF-induced NF-kB signaling, primary screen, cell-based, GFP fluorescence, uHTS (AID 588850); details: KKLEB NF-kB-GFP reporter, GFP fluorescence overnight, at 5 µM, active compounds read high;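 note: PAF is a Pseudomonas aeruginosa culture filtrate used as stimulus; plate controls were PAF-stimulated DMSO wells for no effect and unstimulated DMSO wells for full effect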

Row | SMILES | inhibition
1 | CCC(=O)N(c1ccccc1)C1(COC)CCN(CCc2cccs2)CC1 | inactive: -18.4%
2 | CCC(=O)N(c1ccccc1)C1(COC)CCN(CCn2nnn(CC)c2=O)CC1 | inactive: -6.9%
